Test results reported in US10876088B2, “Modular organ microphysiological system with integrated pumping, leveling, and sensing” (Massachusetts Institute of Technology, priority 2016, dated 2020).

System: 7-way MPS platform
Settings: diclofenac added to apical side of gut MPS

4′-hydroxy-DCF [4-OH-DCF]
absorption and distribution across MPS compartments: detected in all the others MPS compartments
